This assay can be described thus: Food intake assay in overnight fasted mice. The assay is classed as in vivo. The note with it: 25 nmol/kg intraperitoneal. As for the experimental part:
Female NIH/Swiss mice (8-14 weeks old) were group housed with a 12:12 hour light:dark cycle. Water and a standard pelleted mouse chow diet are available ad libitum, except as noted. Animals are fasted starting at approximately 1500 hrs, 1 day prior to experiment.
The effects of treatment on food intake are expressed as % change relative to control.

On to “CNTATCVLGRLSQELHRLQTYPRTNTGSNT [Compound 89]”, for which the “cumulative food intake compared to vehicle, 30 min” value was −6%; the “cumulative food intake compared to vehicle, 60 min” value is −13%; the “cumulative food intake compared to vehicle, 120 min” value is on record as −22%; the “cumulative food intake compared to vehicle, 180 min” value was −20%.
On to “CNTATCVLGRLSQELHRLQTYPRTNTGSNTY [Compound 70]”, for which the “cumulative food intake compared to vehicle, 30 min” value is −76%; the “cumulative food intake compared to vehicle, 60 min” value was −64%; the “cumulative food intake compared to vehicle, 120 min” value is −47%.
In the same order, the values of “Isocaproyl-CNTATCVLGRLSQELHRLQTYPRTNTGSNTY (N-isocaproyl cap) [Compound 80]” are −32%, −28% and −22%.
Consider “N-isocaproyl-KCNTATCVLGRLSQELHRLQTYPRTNTGSNTY (N-isocaproyl cap) [Compound 73]”, for which the “cumulative food intake compared to vehicle, 30 min” value is listed as −51%; the “cumulative food intake compared to vehicle, 60 min” value is recorded as −31%; the “cumulative food intake compared to vehicle, 120 min” value is −23%; the “cumulative food intake compared to vehicle, 180 min” value is given as −28%.
Regarding “SCNTATCVLGRLSQELHRLQTYPRTNTGSNTY [Compound 102]”, the “cumulative food intake compared to vehicle, 30 min” value was −58%; the “cumulative food intake compared to vehicle, 60 min” value is reported as −53%; the “cumulative food intake compared to vehicle, 120 min” value is on record as −45%.

Source of the values: patent publication US8598120B2 (Amylin Pharmaceuticals, LLC, priority 2004, dated 2013).
